Test results as given in article PMC10424673, “Computational Design of Potent and Selective D-Peptide Agonists of the Glucagon-like Peptide-2 Receptor” (Journal of Medicinal Chemistry, 2023).

By UniProt entry, the sequences of proteins in these tests, tags left out. Where a name states a change or a piece, a line headed by the entry shows the natural chain unless it says otherwise.
UniProt O95838: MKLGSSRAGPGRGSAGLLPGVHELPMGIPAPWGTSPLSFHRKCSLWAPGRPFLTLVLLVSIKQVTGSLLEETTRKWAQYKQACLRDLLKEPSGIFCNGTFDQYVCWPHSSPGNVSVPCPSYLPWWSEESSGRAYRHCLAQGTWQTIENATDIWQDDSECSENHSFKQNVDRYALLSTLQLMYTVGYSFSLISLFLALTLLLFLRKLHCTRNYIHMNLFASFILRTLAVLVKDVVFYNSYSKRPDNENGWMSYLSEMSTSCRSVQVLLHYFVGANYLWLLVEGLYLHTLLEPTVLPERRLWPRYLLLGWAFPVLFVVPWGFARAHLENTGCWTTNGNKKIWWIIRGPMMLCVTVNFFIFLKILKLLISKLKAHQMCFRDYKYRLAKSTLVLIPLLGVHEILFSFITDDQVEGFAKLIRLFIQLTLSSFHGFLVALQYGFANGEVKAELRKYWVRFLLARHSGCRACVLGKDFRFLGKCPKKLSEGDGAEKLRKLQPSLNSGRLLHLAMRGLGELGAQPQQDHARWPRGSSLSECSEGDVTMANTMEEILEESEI

Key:
[1] = target: glucagon-like peptide-2 receptor (hGLP-2R), stably expressed on HEK293 cells (human) (UniProt O95838)
[2] = target: glucagon-like peptide-2 receptor (hGLP-2R), stably expressed on HEK293 cells (human) (UniProt O95838); remark: listed apart in the source

Row | Substance | HTRF cAMP assay (decrease of the FRET signal) in GLP-2R expressing HEK293 cells [1] [nM] | HTRF cAMP assay in GLP-2R expressing HEK293 cells: efficacy compared to L-GLP-2 [2] [%]
1 | D-GLP-2 (D-retro-inverted GLP-2 analogue) (designed binder) | 1420 | 
2 | D-GLP-2 E33A hydrazide (designed binder) | 226 | 69.4
